The test system of the test is immortalized Fuchs' endothelial corneal dystrophy cells (iFECD). Briefly: Caspase 3/7 activity (Caspase-Glo 3/7 Assay) in iFECD under TGF-β2 stimulation, primary and secondary screening. The settings on record: Homo sapiens, 28 h, secondary screening Caspase 3/7 activity divided by cell viability, read-out: Caspase 3/7 activity/Viable cell number (%). In kind it is cell-based. How it is done:
7×10^3 immortalized Fuchs' endothelial corneal dystrophy cells were seeded on a 96-well plate and were cultured for 24 hours under the condition of 5% CO2 at 37° C. Dulbecco's Modified Eagle Medium (DMEM) (nacalai tesque, 26252-94)+10% FBS (Biological Industries/04-001-1A)+1% penicillin-streptomycin (nacalai tesque, 26252-94) was used as the medium. Next, TGF-β2 (manufacturer: R&D Systems, Inc., distributor: Wako Pure Chemical Industries, Ltd./manufacturer codes 302-B2-002, 302-B2-010, distributor codes: 553-62881, 559-62883) (5 ng/mL) alone, or both TGF-β2 (5 ng/mL) and each agent of SCREEN-WELL® FDA Approved Drug Library V2, Japan version (10 μM) were added. After 28 hours under the condition of 5% CO2 at 37° C., cell morphology was observed using a phase difference microscope. Caspase 3/7 activity was then measured using Caspase-Glo 3/7 Assay (Promega, #G8091). DMEM+2% FBS+1% P/S was used as the medium. Caspase 3/7 activity and cell viability in this example were measured using Veritas™ Microplate Luminometer. Such a device enables many samples to be simultaneously measured.
The control group was supplemented with a solvent of each reagent, i.e., DMSO (Dimethyl Sulfoxide, Sterile-filtered) (nacalai tesque, 13408-64). […] Caspase activity was measured after being cultured in Dulbecco's Modified Eagle Medium (DMEM)+2% fetal bovine serum (FBS)+1% penicillin/streptomycin (P/S) for 28 hours. […]

In the case of `COc1cc(NC(C)CCCN)c2ncccc2c1` (stereo not shown) [Primaquine Phosphate], the activity at 10 µM was determined as 99.4%.

Source of the values: patent US20200386744A1, “NOVEL SCREENING METHOD FOR TGF-BETA INHIBITOR” (The Doshisha, priority 2017, published 2020).
